Our source for the logD values is ChEMBL document CHEMBL3272293, “Use of distribution coefficients in quantitative structure-activity relationships” (J Med Chem, 1977).

Common to all, as to assay type: physicochemical
Holding throughout (conditions): octanol/water

Data set [1] can be described thus: Octanol-aqueous phase distribution coefficient, log D of the compound at pH 7.
Data set [2] is described as follows: Octanol-aqueous phase distribution coefficient, log D of the compound at pH 8.
Data set [3] in a line: Octanol-aqueous phase distribution coefficient, log D of the compound at pH 5.
A short description of data set [4]: Octanol-aqueous phase distribution coefficient, log D of the compound at pH 6.

What is called logD is the decadic logarithm of the distribution of all forms, ionised or not, between an organic phase and buffer at a given pH. Lower therefore signals lower lipophilicity. Turning to `O=[N+]([O-])c1cccc([N+](=O)[O-])c1O`, the logD in data set [1] is -2.05; in data set [2], -3.05; in data set [3], -0.05; in data set [4] it was -1.05.
